## OPERA 2.9 data: properties

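The OPERA project collected these measurements from public sources as training and test data for property models. The files give a single number for a compound and property, which may rest on several reports. Method, purity and exact conditions of the single measurements are not given. A value may pool stereoisomers or salt forms, and the file does not say which form was measured. Some entries may be limits or estimates that an upstream database listed as plain numbers.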

The melting point is given in degrees Celsius. The boiling point refers to atmospheric pressure (760 mmHg), by the definition of the set. logP is the log10 of the octanol-water partition coefficient; higher is more lipophilic. Water solubility is log10 of mol/L, nominally at 25 °C; higher is more soluble. Vapor pressure is log10 of mmHg; the set covers 15 to 30 °C, mostly 20 to 25 °C. The Henry's law constant is on a log10 scale in atm·m3/mol (set defined at 25 °C); higher favours air over water. The unbound fraction in human plasma runs from 0 (all bound) to 1 (all free). Clint is human hepatic intrinsic clearance in µL/min per million cells; 0 means that no clearance was seen. Cells with "n/a" have no entry in this list.

{"smiles": "OCCSSCCO", "logP": "-0.3", "vapor pressure (log10 mmHg)": "-4.844"}
{"smiles": "CCOC(=O)C1OC1(C)c1ccccc1", "stereo": "stereo unspecified", "logP": "2.6", "vapor pressure (log10 mmHg)": "-2.763"}
{"smiles": "CCCN(CC)CC1COC2(CCC(C(C)(C)C)CC2)O1", "stereo": "stereo unspecified", "Henry's law constant (log10 atm·m3/mol)": "-7.426", "fu": "0.005908", "Clint (µL/min/10^6 cells)": "3.35"}
{"smiles": "CCCN(CCC)c1c([N+](=O)[O-])cc(S(N)(=O)=O)cc1[N+](=O)[O-]", "water solubility (log10 mol/L)": "-4.85", "vapor pressure (log10 mmHg)": "-8.011", "fu": "0.00375", "Clint (µL/min/10^6 cells)": "20.2"}
{"smiles": "CS(=O)(=O)c1cc(C(F)(F)F)ccc1C(=O)c1cnoc1C1CC1", "fu": "0.01605", "Clint (µL/min/10^6 cells)": "20.42"}
{"smiles": "CCCCSP(=O)(SCCCC)SCCCC", "fu": "0.06742", "Clint (µL/min/10^6 cells)": "125.1"}
{"smiles": "CCCCCCCCCCCCCCCC[n+]1ccccc1.[Cl-]", "logP": "1.71", "vapor pressure (log10 mmHg)": "-7.385"}
{"smiles": "C=CC(=O)NC(C)(C)CC(C)=O", "logP": "2.09", "vapor pressure (log10 mmHg)": "-3.068"}
{"smiles": "Clc1ccc(Oc2ccc(Cl)c(Cl)c2)cc1Cl", "melting point (°C)": "70", "water solubility (log10 mol/L)": "-6.98"}
{"smiles": "COC12C[C@@H](CO)CN(C)[C@@H]1Cc1cn(C)c3cccc2c13", "stereo": "some centres not stated", "melting point (°C)": "214", "logP": "2.5", "water solubility (log10 mol/L)": "-2.828", "vapor pressure (log10 mmHg)": "-9.639"}
{"smiles": "CC1=NNC(=O)N(/N=C/c2cccnc2)C1", "vapor pressure (log10 mmHg)": "-7.523", "Clint (µL/min/10^6 cells)": "8.61"}
{"smiles": "C=CCCC(=O)Cl", "melting point (°C)": "-22.45", "vapor pressure (log10 mmHg)": "1.009", "Henry's law constant (log10 atm·m3/mol)": "-6.02"}
{"smiles": "Nc1ccc(-c2ccc(N)cc2)cc1", "fu": "0.1977", "Clint (µL/min/10^6 cells)": "6.91"}
{"smiles": "C=CCC1(CC(C)(C)C)C(=O)NC(=O)NC1=O", "melting point (°C)": "156", "logP": "2.06"}
{"smiles": "CNC(=O)Oc1cc(C)c(C)cc1Cl", "melting point (°C)": "124", "water solubility (log10 mol/L)": "-3.02"}
{"smiles": "CCN(CCCl)c1ccc(C=O)cc1", "melting point (°C)": "-48", "logP": "2.51", "water solubility (log10 mol/L)": "-3.033", "vapor pressure (log10 mmHg)": "-5.156"}
{"smiles": "CNC(=O)Oc1cccc2c1OC(C)(C)O2", "water solubility (log10 mol/L)": "-2.916", "fu": "0.1975", "Clint (µL/min/10^6 cells)": "21.66"}
{"smiles": "CO/N=C(/C(=O)OC)c1ccccc1CO/N=C(\\C)c1cccc(C(F)(F)F)c1", "BP (°C)": "312", "vapor pressure (log10 mmHg)": "-7.593", "Henry's law constant (log10 atm·m3/mol)": "-7.644"}
{"smiles": "CCOP(=S)(Oc1ccc(C#N)cc1)c1ccccc1", "stereo": "stereo unspecified", "vapor pressure (log10 mmHg)": "-5.917", "Henry's law constant (log10 atm·m3/mol)": "-7.154"}
{"smiles": "CCC(C)(C#N)N=NC(C)(C#N)CC", "stereo": "stereo unspecified", "logP": "2.07", "vapor pressure (log10 mmHg)": "-2.711"}
{"smiles": "[Cr+3].[NH-]c1c(/N=N/c2cc([N+](=O)[O-])cc([N+](=O)[O-])c2[O-])cc(S(=O)(=O)[O-])c2ccccc12.[NH-]c1c(/N=N/c2cc([N+](=O)[O-])cc([N+](=O)[O-])c2[O-])cc(S(=O)(=O)[O-])c2ccccc12.[Na+].[Na+].[Na+]", "logP": "-4.02", "water solubility (log10 mol/L)": "-2.448"}
{"smiles": "COc1ccc2cccc(CCN)c2c1.Cl", "melting point (°C)": "216.1", "logP": "1.071"}
{"smiles": "OC1(c2ccc(Cl)cc2)c2ccccc2C2=NCCN21", "stereo": "stereo unspecified", "melting point (°C)": "198.5", "logP": "3.7", "water solubility (log10 mol/L)": "-3.311"}

3 of these entries, quoted again:

structure (SMILES)	melting point (°C)	BP (°C)	logP	water solubility (log10 mol/L)	vapor pressure (log10 mmHg)	Henry's law constant (log10 atm·m3/mol)	fu	Clint (µL/min/10^6 cells)
[Cr+3].[NH-]c1c(/N=N/c2cc([N+](=O)[O-])cc([N+](=O)[O-])c2[O-])cc(S(=O)(=O)[O-])c2ccccc12.[NH-]c1c(/N=N/c2cc([N+](=O)[O-])cc([N+](=O)[O-])c2[O-])cc(S(=O)(=O)[O-])c2ccccc12.[Na+].[Na+].[Na+]	n/a	n/a	-4.02	-2.448	n/a	n/a	n/a	n/a
OC1(c2ccc(Cl)cc2)c2ccccc2C2=NCCN21 (stereo unspecified)	198.5	n/a	3.7	-3.311	n/a	n/a	n/a	n/a
C=CCCC(=O)Cl	-22.45	n/a	n/a	n/a	1.009	-6.02	n/a	n/a

Values as listed in the OPERA 2.9 repository of K. Mansouri.